Experimental data: PMC6153800, “Structure-Based Drug Design and Characterization of Sulfonyl-Piperazine Benzothiazinone Inhibitors of DprE1 from Mycobacterium tuberculosis” (Antimicrobial Agents and Chemotherapy, 2018)

Tested on: HepG2 cells

`CO[C@H]1/C=C/O[C@@]2(C)Oc3c(C)c(O)c4c(O)c(c(/C=N/N5CCN(C)CC5)c(O)c4c3C2=O)NC(=O)/C(C)=C\C=C\[C@H](C)[C@H](O)[C@@H](C)[C@@H](O)[C@@H](C)[C@H](OC(C)=O)[C@@H]1C` [Rifampin, reference compound] was tested, and the Selective index was 125,000.
